Tested on: MCF7-ADR (resistant)
Assay: Cytotoxicity, MCF7-ADR (resistant)
Format: cell-based, human
Conditions: exposition time 72 h, RPMI 1640 + 20 mM HEPES + 2 mM L-glutamine

| Structure (SMILES) | IC50 [µM] |
| --- | --- |
| CC(=O)O[C@@]12CO[C@@H]1C[C@H](O)[C@@]1(C)C(=O)C(=O)C3=C(C)[C@@H](OC(=O)[C@H](O)[C@H](CC(C)C)NC(=O)OC(C)(C)C)C[C@@](O)([C@@H](OC(=O)c4ccccc4)[C@H]21)C3(C)C [Compound 10, 13-[(2R,3S)-3-ter-butoxycarbonylamino-2-hydroxy3-isobutyl-propanoyl]-10-deacetyl-10-dehydro-baccatine III] | 0.013 |
| CC(=O)O[C@@]12CO[C@@H]1C[C@H](O)[C@@]1(C)C(=O)C(=O)C3=C(C)[C@@H](OC(=O)[C@H](O)[C@H](CC(C)C)NC(=O)OC(C)(C)C)[C@@H]4OC(=O)O[C@]4([C@@H](OC(=O)c4ccccc4)[C@H]21)C3(C)C [Compound 11, 13=[(2R,3S)-3-ter-butoxycarbonylamino-2-hydroxy-3-isobutyl-propanoyl]-10-dehydro-10-deacetyl-14β-hydroxy-baccatine III 1,14-carbonate] | 0.028 |

Source: US5750562A (priority 1995, dated 1998)
